# AlphaSeq binding of Ab-14 light chain variants to a spike HR2 peptide

Binding partner: SARS-CoV-2 spike HR2 peptide, sequence PDVDLGDISGINAS.

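The starting antibody came from a phage panning campaign against this peptide. This is the validation round: designs drawn from the data on random variants, tested in the same kind of assay. Several design methods are mixed in this list. Affinity was read by AlphaSeq, a pooled yeast mating assay with surface-displayed partners. Binding brings cells together so that they mate, and sequencing counts the barcode pairs among the diploids. Scores were corrected for input abundance and mapped to Kd with protein pairs of known affinity run in the same pool. The assay was run in six technical replicates.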

Parent scFv Ab-14: VH joined to VL by a 15-residue (Gly4Ser)3 linker. Changes lie in the light chain CDRs alone.
VH: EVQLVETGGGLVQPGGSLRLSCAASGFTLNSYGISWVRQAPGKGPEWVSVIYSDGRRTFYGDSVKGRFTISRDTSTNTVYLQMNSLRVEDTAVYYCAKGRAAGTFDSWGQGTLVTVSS
VL: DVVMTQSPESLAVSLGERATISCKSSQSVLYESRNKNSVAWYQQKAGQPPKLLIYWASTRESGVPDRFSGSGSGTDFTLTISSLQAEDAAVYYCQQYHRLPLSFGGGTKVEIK

Each variant is given by its three light chain CDRs, as the data file delimits them; those of the parent are KSSQSVLYESRNKNSVA, WASTRES, QQYHRLPLS.
The Kd shown is the geometric mean over detected replicates; a lower Kd is a better binder.
"not detected" marks a missing value. The strain was present, yet no cells mated with the target were sequenced in any replicate, which points to weak or no binding.

CDR-L1	CDR-L2	CDR-L3	apparent Kd	replicates with signal	empty controls
KISINQMHYNGMRSAIA	NTNQAAM	QQYFHLPLM	2.1 nM	6 of 6	1 of 18
ILDQSQLYESRNKNAVA	NASTREQ	QQYHRLPLS	680 pM	6 of 6	0 of 18
QIDSFYQHGTDQKQAMA	DVSVRDQ	QQYSRLPLS	1.5 nM	6 of 6	2 of 18
KLYQTVGYESRNKSRVA	DNSTRES	QQYDRLPLS	3.9 µM	2 of 6	1 of 18
TIGQTLMTGVRNRSNVA	EVSQRLN	QQYDRLPLL	350 nM	4 of 6	0 of 18
KLSQSVEYEERDKNSVA	DAQTRLS	QQYHRLPLS	2.0 nM	6 of 6	0 of 18
KLSQSVLYESRNKNSVA	NASQRYS	QQYHRLPLS	1.5 nM	6 of 6	0 of 18
KQSQSDEQESSNKNSVA	NASTREQ	QQYHRLPLS	1.2 nM	6 of 6	0 of 18
MLSDLVKVGSRNTNSVA	DNSTRGS	QQYDRLPLS	1.4 nM	6 of 6	0 of 18
QFAGAMYGGGNDWQNIA	EAMTYIK	QQYSRLPLI	not detected	0 of 6	0 of 18
KITATMRFEQKQSNNIA	EVTTRSK	QQYYRLPLA	9.1 nM	6 of 6	1 of 18
KLQQSVLMESRNKNSVA	NASTRES	QQYHRLPLS	710 pM	6 of 6	0 of 18
KISMSVLYDSNTKNSVA	WASTRES	QQYHRLPLS	not detected	0 of 6	0 of 18
HISQMVMYGSCNKNNVA	QVSIRGE	QQYHRLPLS	110 nM	1 of 6	0 of 18
KQSQEVLFESRNKNSVA	DASTREQ	QQYHRLPLS	610 pM	6 of 6	4 of 18
KQSISYLGEKRNKNSVA	EASTRES	QQYHRLPLS	840 pM	6 of 6	0 of 18
KLEDQMQTSIASDNSVA	DTNMFHE	QQYGRLPLV	190 nM	5 of 6	0 of 18
KNSQSVLYESRNKNSVA	SASTRES	QQYHRLPLS	2.6 nM	6 of 6	1 of 18
KLRQSKEYESRQKNSVA	NASTREV	QQYHRLPLS	2.9 nM	6 of 6	0 of 18
RLQIDDNGYEGMRNNVA	DGGMVRM	QQYARLPLM	4.0 nM	6 of 6	1 of 18
KCDQSQDYESRNKNNVA	NASQRES	QQYHRLPLS	1.0 nM	6 of 6	1 of 18
IVSQLMLIGMHAKNSIA	EASTRIN	QQYERLPLF	47 nM	3 of 6	0 of 18
KMSQSVLYESANKNSVA	DASTRES	QQYHRLPLS	590 pM	6 of 6	0 of 18
KLSQSVLYEERQKNSVA	NASTRES	QQYHRLPLS	2.0 nM	6 of 6	1 of 18
QIYQAMHTLMQVKNNIA	DVTNRNN	QQYHRLPLS	5.7 nM	6 of 6	2 of 18
KLSGSMLYESRNKNSVA	SASTRES	QQYHRLPLS	890 pM	6 of 6	3 of 18
KISMAVTFETRNKNSVA	ENSTRES	QSYHRLPLS	not detected	0 of 6	0 of 18
FVSQSQLYESRNKNSVA	NGSTRES	QQYHRLPLS	440 pM	6 of 6	0 of 18
KLSGSHLYESRNKNSVA	HASLRLS	QCYHRLPLS	2.1 nM	6 of 6	0 of 18
MMSQVTALGQRHRNNVA	QTSTRED	QQYDRLPLV	79 nM	6 of 6	0 of 18
KIGMTLNQLMHKKNNVA	DLVMRES	QQYHRLPLS	4.7 nM	6 of 6	2 of 18
KSSPSVLSESTNKNSVA	WASTRES	QQYHRLPLS	63 nM	6 of 6	1 of 18
KSSGSVLYEYRNKNSVA	GASHRES	QQYHRLPLS	not detected	0 of 6	0 of 18
KMSQSVLYESRNKNSVA	NASTRES	QQYHRLPLM	980 pM	6 of 6	2 of 18
MLSEVLHMLGVAKNSIA	DLVLRAN	QQYHRLPLS	31 nM	6 of 6	0 of 18
TISTSMRYESSLKNAIA	NAQTREP	QQYHRLPIS	8.7 nM	6 of 6	0 of 18
KVSQSVLYESRTKNSVA	NASTRES	QQMHRLPLM	8.6 nM	6 of 6	0 of 18
KLQQSEGYESRNKNSVA	NASQRES	QQYHRLPLS	1.1 nM	6 of 6	3 of 18
KSPGSNLYESRNLNSVA	KASTRLQ	QQYHRLPLS	3.0 nM	6 of 6	2 of 18
HFAYPLQSGYVSKQNVA	NASTVMT	QHYNRLPLS	20 nM	6 of 6	0 of 18
KLLQSVLYESRDKNSVA	HASTRES	QQYHRLPLS	3.6 nM	6 of 6	3 of 18
KQGQSVLYESRNANSVA	WASTRES	QQYHRLPLS	1.0 µM	2 of 6	0 of 18
HISESMYYQSRIKNNIA	EMSTRER	QHYHRLPLS	14 nM	6 of 6	0 of 18
KMRVSLQQGIYRADSIA	STDIRVL	QQYYHLPLA	21 nM	6 of 6	0 of 18
NLDKHDYESRQMINAIA	DMSTLMA	QQYASLPLD	34 nM	6 of 6	1 of 18
KLSQSVWYESRNKNSVA	DASTRES	QQYHRLPLS	530 pM	6 of 6	1 of 18
KFSQSVLYESRNSNSVA	EASTRES	QQYHRLPLS	890 pM	6 of 6	1 of 18
TIGGTLMYGMRNRSNVA	EVSQRLN	QQYDRLPLE	99 nM	5 of 6	1 of 18
KSSQSVLYESRNKNSVA	SASTRES	QRYHRLPLS	not detected	0 of 6	0 of 18
KISQSVLYESRNKNSVA	WASTRES	QQYHRLPLS	6.9 nM	6 of 6	1 of 18
KLSQSNLYESRNKNSVA	NASTRED	QQYHRLPLS	350 pM	6 of 6	0 of 18
KLSMVTGHMSVSKNNVA	EMVTRVN	QQYARLPLS	10 nM	3 of 6	0 of 18
KSSLSVLFESRNKNSVA	NASTRES	QQYHRLPLS	5.2 nM	6 of 6	1 of 18
KVSMLINQTFENSNNVA	EMVTRTK	QQYNRLPLS	6.9 nM	6 of 6	0 of 18
QLSSIMGHLSVEKNNVA	EMETREN	QQYDRLPLS	270 nM	2 of 6	1 of 18
HVMHEQLDYKNYENNIA	HESQRLY	QQYSHLPLS	6.4 nM	6 of 6	0 of 18
KVSPSWLYEDRNWNSVA	QASQRNS	QQYHRLPLS	1.5 nM	6 of 6	0 of 18
KGSQSVLYDSRNKNSVA	WASTRES	QQYHRLPLS	230 nM	3 of 6	1 of 18
KISQMIRVGSTHKNSIA	EEQTRAK	QQYHRLPLA	60 nM	6 of 6	0 of 18
HIQDDAGGLSEQFDSVA	STEERSY	QQYSRLPLS	1.8 µM	1 of 6	0 of 18
KLSQSVLYESRNKNSVA	NASTRCS	QDYHRLPLS	1.0 nM	6 of 6	0 of 18

A selection of 4 entries from above:

CDR-L1	CDR-L2	CDR-L3	apparent Kd	replicates with signal	empty controls
NLDKHDYESRQMINAIA	DMSTLMA	QQYASLPLD	34 nM	6 of 6	1 of 18
KLRQSKEYESRQKNSVA	NASTREV	QQYHRLPLS	2.9 nM	6 of 6	0 of 18
KLSQSVLYEERQKNSVA	NASTRES	QQYHRLPLS	2.0 nM	6 of 6	1 of 18
KMSQSVLYESANKNSVA	DASTRES	QQYHRLPLS	590 pM	6 of 6	0 of 18

The authors averaged sequences with at least three values out of six and counted those with two or fewer as poor binders.
A sequence measured in both rounds can read differently, since the two assays cover different ranges.
Of ten entries with the parent sequence, four were seen in most replicates (averages 2.2 nM to 240 nM), three in one and three in none, so single entries are noisy.
Background: pairings of all light chain designs with three empty control strains gave a value in 4% of cases (median 430 nM, 5th percentile 38 nM). Values in that range, when seen in few replicates, are hard to tell from nonspecific mating. For each scFv, signals with the empty controls are counted beside the result.

Reference: Li et al. 2023, doi:10.1038/s41467-023-39022-2. File: FLAb, binding data.